This is a selection; strong and weak results do not stand in their true shares. Records with an inconclusive call do not appear. Calls come from the whole dose curve; as a rule, active = well fitted curve in the direction sought with a large enough effect; inconclusive = small, poorly fitted or top-dose-only effect, or effect the other way; inactive = no such curve, though single readings can be large or run the other way. Some compounds were tested as several samples or in several runs, with calls that do not always agree.
biological target: Cytochrome P450 2D6 (Homo sapiens) (UniProt P10635); assay: Cytochrome panel assay with activity outcomes; conditions: recombinant CYP, pro-luciferin dealkylation, luminescence, p450-cyp2d6; series mostly up to 57.1 µM

Amino acid sequences for entries named in this document (tags omitted).
UniProt P10635, whole entry, looked up: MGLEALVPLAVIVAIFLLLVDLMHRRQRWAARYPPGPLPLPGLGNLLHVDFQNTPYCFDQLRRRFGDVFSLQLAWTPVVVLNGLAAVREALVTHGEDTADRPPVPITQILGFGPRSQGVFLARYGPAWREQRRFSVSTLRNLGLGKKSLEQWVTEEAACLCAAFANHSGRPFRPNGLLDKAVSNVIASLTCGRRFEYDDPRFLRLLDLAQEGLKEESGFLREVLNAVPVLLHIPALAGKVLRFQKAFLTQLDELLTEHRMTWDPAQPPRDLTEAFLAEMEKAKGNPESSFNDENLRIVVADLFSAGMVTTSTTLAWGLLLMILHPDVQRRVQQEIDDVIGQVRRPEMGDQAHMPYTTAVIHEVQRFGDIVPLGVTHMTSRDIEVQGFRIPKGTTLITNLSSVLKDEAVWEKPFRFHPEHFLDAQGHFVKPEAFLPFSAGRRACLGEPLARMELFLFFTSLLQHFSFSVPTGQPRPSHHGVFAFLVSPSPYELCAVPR

SMILES | AC50
O=c1[nH]c2ccccc2n1C1CCN(CCCC(c2ccc(F)cc2)c2ccc(F)cc2)CC1 | active: 3.16 µM and inactive

— PubChem BioAssay AID1851 (National Center for Advancing Translational Sciences (NCATS), 2009)
